From patent US9029370B2, “Substituted benzamide derivatives” (Hoffmann-La Roche Inc., priority 2011, dated 2015)

By UniProt entry, the sequences of proteins in these tests, tags left out.
UniProt Q923Y9, whole entry: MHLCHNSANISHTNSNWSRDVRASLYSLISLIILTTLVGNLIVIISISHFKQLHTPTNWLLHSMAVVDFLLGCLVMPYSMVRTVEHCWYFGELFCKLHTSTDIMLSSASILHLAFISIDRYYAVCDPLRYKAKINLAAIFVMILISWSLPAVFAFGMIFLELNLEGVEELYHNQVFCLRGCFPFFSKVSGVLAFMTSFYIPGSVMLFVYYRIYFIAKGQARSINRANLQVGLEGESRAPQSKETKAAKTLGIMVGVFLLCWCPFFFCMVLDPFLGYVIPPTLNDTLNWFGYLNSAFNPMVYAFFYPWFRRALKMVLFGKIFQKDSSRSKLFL
UniProt Q923Y8, whole entry: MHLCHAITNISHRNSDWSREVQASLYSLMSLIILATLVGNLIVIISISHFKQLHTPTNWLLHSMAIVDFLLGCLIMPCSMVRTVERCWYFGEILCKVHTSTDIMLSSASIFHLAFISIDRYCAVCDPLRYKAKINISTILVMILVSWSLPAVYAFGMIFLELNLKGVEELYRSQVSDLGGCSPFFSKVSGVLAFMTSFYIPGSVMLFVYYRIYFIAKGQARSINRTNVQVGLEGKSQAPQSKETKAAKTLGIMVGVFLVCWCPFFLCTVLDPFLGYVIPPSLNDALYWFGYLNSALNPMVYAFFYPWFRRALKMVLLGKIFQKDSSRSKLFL

Molecular target: rat TAAR1 (Rattus norvegicus (Rat), UniProt Q923Y9)
Assay: Radioligand binding assay on rat TAAR1
Conditions: rat TAAR1, HEK-293 membranes; second value of the pair (line below); read-out: Ki (μM) mouse/rat
Protocol: (§1) For the construction of expression plasmids the coding sequences of human, rat and mouse TAAR 1 were amplified from genomic DNA essentially as described by Lindemann et al.. The Expand High Fidelity PCR System (Roche Diagnostics) was used with 1.5 mM Mg^2+ and purified PCR products were cloned into pCR2.1-TOPO cloning vector (Invitrogen) following the instructions of the manufacturer. PCR products were subcloned into the pIRESneo2 vector (BD Clontech, Palo Alto, Calif.), and expression vectors were sequence verified before introduction in cell lines.
(§2) HEK293 cells (ATCC # CRL-1573) were cultured essentially as described by Lindemann et al. (2005). For the generation of stably transfected cell lines HEK293 cells were transfected with the pIRESneo2 expression plasmids containing the TAAR coding sequences (described above) with Lipofectamine 2000 (Invitrogen) according to the instructions of the manufacturer, and 24 hrs post transfection the culture medium was supplemented with 1 mg/ml G418 (Sigma, Buchs, Switzerland). After a culture period of about 10 d clones were isolated, expanded and tested for responsiveness to trace amines (all compounds purchased from Sigma) with the cAMP Biotrak Enzyme immunoassay (EIA) System (Amersham) following the non-acetylation EIA procedure provided by the manufacturer.
Radioligand Binding Assay on Rat TAAR1
(§3) Membrane Preparation and Radioligand Binding.
HEK-293 cells stably expressing rat TAAR1 were maintained at 37° C. and 5% CO2 in DMEM high glucose medium, containing fetal calf serum (10%, heat inactivated for 30 min at 56° C.), penicillin/streptomycin (1%), and 375 μg/ml geneticin (Gibco). Cells were released from culture flasks using trypsin/EDTA, harvested, washed twice with ice-cold PBS (without Ca^2+ and Mg^2+), pelleted at 1′000 rpm for 5 min at 4° C., frozen and stored at −80° C. Frozen pellets were suspended in 20 ml HEPES-NaOH (20 mM, pH 7.4) containing 10 mM EDTA and homogenized with a Polytron (PT 6000, Kinematica) at 14′000 rpm for 20 s. The homogenate was centrifuged at 48′000×g for 30 min at 4° C. Subsequently, the supernatant was removed and discarded, and the pellet resuspended in 20 ml HEPES-NaOH (20 mM, pH 7.4) containing 0.1 mM EDTA using the Polytron (20 s at 14′000 rpm). This procedure was repeated and the final pellet resuspended in HEPES-NaOH containing 0.1 mM EDTA and homogenized using the Polytron. Typically, aliquots of 2 ml membrane portions were stored at −80° C. With each new membrane batch the dissociation constant (Kd) was determined via a saturation curve. […] Nonspecific binding was defined as the amount of ^3[H]-(S)-4-[(ethyl-phenyl-amino)-methyl]-4,5-dihydro-oxazol-2-ylamine bound in the presence of 10 μM unlabeled ligand. All compounds were tested at a broad range of concentrations (10 pM to 10 μM) in duplicates. […] The 96 deep well plates were incubated for 1 hr at 4° C. Incubations were terminated by rapid filtration through Unifilter-96 plates (Packard Instrument Company) and glass filters GF/C (Perkin Elmer) presoaked for 1 hr in polyethylenimine (0.3%) and washed 3 times with 1 ml of cold binding buffer. After addition of 45 μl of Microscint 40 (PerkinElmer) the Unifilter-96 plate was sealed and after 1 hr the ratioactivity counted using a TopCount Microplate Scintillation Counter (Packard Instrument Company).

SMILES	Ki
O=C(Nc1ccc(Cl)nc1)Nc1ccc([C@H]2CNCCO2)cc1Br [Example 68, 1-((S)-2-Bromo-4-morpholin-2-yl-phenyl)-3-(6-chloro-pyridin-3-yl)-urea]	0.0081 µM
N#Cc1cccc(NC(=O)Nc2ccc([C@@H]3CNCCO3)cc2Cl)c1 [Example 7, (R)-1-(2-Chloro-4-(morpholin-2-yl)phenyl)-3-(3-cyanophenyl)urea]	0.0016 µM
N#Cc1cccc(NC(=O)Nc2ccc([C@H]3CNCCO3)cc2Cl)c1 [Example 6, (S)-1-(2-Chloro-4-(morpholin-2-yl)phenyl)-3-(3-cyanophenyl)urea]	0.0017 µM
N#Cc1cc(C2CNCCO2)ccc1NC(=O)c1ccn(-c2ccc(F)cc2)n1 (racemic) [Example 28, (RS)—N-(2-Cyano-4-(morpholin-2-yl)phenyl)-1-(4-fluorophenyl)-1H-pyrazole-3-carboxamide]	0.0059 µM
O=C(Nc1ccc(Cl)nc1)Nc1ccc([C@@H]2CNCCO2)cc1Br [Example 67, 1-((R)-2-Bromo-4-morpholin-2-yl-phenyl)-3-(6-chloro-pyridin-3-yl)-urea]	0.0038 µM
O=C(Nc1ccc(C2CNCCO2)cc1Cl)c1cnn(-c2ccc(F)cc2)c1 (racemic) [Example 18, (RS)—N-(2-Chloro-4-(morpholin-2-yl)phenyl)-1-(4-fluorophenyl)-1H-pyrazole-4-carboxamide]	0.0033 µM

Molecular target: mouse TAAR1 (Mus musculus (Mouse), UniProt Q923Y8)
Assay: Radioligand binding assay on mouse TAAR1
Conditions: mouse TAAR1, HEK-293 membranes; first value of the pair (before the slash); read-out: Ki (μM) mouse/rat
Protocol: as §1, §2
Radioligand Binding Assay on Mouse TAAR1
as §3
HEK-293 cells stably expressing mouse TAAR1 were maintained at 37° C. and 5% CO2 in DMEM high glucose medium, containing fetal calf serum (10%, heat inactivated for 30 min at 56° C.), penicillin/streptomycin (1%), and 375 μg/ml geneticin (Gibco). Cells were released from culture flasks using trypsin/EDTA, harvested, washed twice with ice-cold PBS (without Ca^2+ and Mg^2+), pelleted at 1′000 rpm for 5 min at 4° C., frozen and stored at −80° C. Frozen pellets were suspended in 20 ml HEPES-NaOH (20 mM, pH 7.4) containing 10 mM EDTA and homogenized with a Polytron (PT 6000, Kinematica) at 14′000 rpm for 20 s. The homogenate was centrifuged at 48′000×g for 30 min at 4° C. Subsequently, the supernatant was removed and discarded, and the pellet resuspended in 20 ml HEPES-NaOH (20 mM, pH 7.4) containing 0.1 mM EDTA using the Polytron (20 s at 14′000 rpm). This procedure was repeated and the final pellet resuspended in HEPES-NaOH containing 0.1 mM EDTA and homogenized using the Polytron. Typically, aliquots of 2 ml membrane portions were stored at −80° C. With each new membrane batch the dissociation constant (Kd) was determined via a saturation curve. The TAAR1 radioligand ^3[H]-(S)-4-[(ethyl-phenyl-amino)-methyl]-4,5-dihydro-oxazol-2-ylamine (described in WO 2008/098857) was used at a concentration equal to the calculated Kd value, that was usually around 0.7 nM, resulting in the binding of approximately 0.5% of the radioligand and a specific binding representing approximately 70% of the total binding. Nonspecific binding was defined as the amount of ^3[H]-(S)-4-[(ethyl-phenyl-amino)-methyl]-4,5-dihydro-oxazol-2-ylamine bound in the presence of 10 μM unlabeled ligand. All compounds were tested at a broad range of concentrations (10 pM to 10 μM) in duplicates. […] The 96 deep well plates were incubated for 1 hr at 4° C. Incubations were terminated by rapid filtration through Unifilter-96 plates (Packard Instrument Company) and glass filters GF/C (Perkin Elmer) presoaked for 1 hr in polyethylenimine (0.3%) and washed 3 times with 1 ml of cold binding buffer. After addition of 45 μl of Microscint 40 (PerkinElmer) the Unifilter-96 plate was sealed and after 1 hr the ratioactivity counted using a TopCount Microplate Scintillation Counter (Packard Instrument Company).

SMILES	Ki
O=C(Nc1ccc(Cl)nc1)Nc1ccc([C@H]2CNCCO2)cc1Br [Example 68, 1-((S)-2-Bromo-4-morpholin-2-yl-phenyl)-3-(6-chloro-pyridin-3-yl)-urea]	0.001 µM
O=C(Nc1ccc([C@H]2CNCCO2)cc1Cl)c1cnn(-c2ccc(F)cc2)c1 [Example 31, (S)—N-(2-Chloro-4-(morpholin-2-yl)phenyl)-1-(4-fluorophenyl)-1H-pyrazole-4-carboxamide]	0.0017 µM
O=C(Nc1ccc(Cl)nc1)Nc1ccc([C@@H]2CNCCO2)cc1Cl [Example 20, (R)-1-(2-Chloro-4-morpholin-2-yl-phenyl)-3-(6-chloro-pyridin-3-yl)-urea]	0.0012 µM
N#Cc1cccc(NC(=O)Nc2ccc([C@@H]3CNCCO3)cc2Cl)c1 [Example 7, (R)-1-(2-Chloro-4-(morpholin-2-yl)phenyl)-3-(3-cyanophenyl)urea]	0.0015 µM
O=C(Nc1ccc(Cl)nc1)Nc1ccc([C@H]2CNCCO2)cc1Cl [Example 19, (S)-1-(2-Chloro-4-morpholin-2-yl-phenyl)-3-(6-chloro-pyridin-3-yl)-urea]	0.0014 µM
O=C(Nc1ccc([C@@H]2CNCCO2)cc1Cl)c1cnn(-c2ccc(F)cc2)c1 [Example 32, (R)—N-(2-Chloro-4-(morpholin-2-yl)phenyl)-1-(4-fluorophenyl)-1H-pyrazole-4-carboxamide]	0.0029 µM
O=C(Nc1ccc(Cl)nc1)Nc1ccc(C2CNCCO2)cc1Cl (racemic) [Example 14, (RS)-1-(2-Chloro-4-morpholin-2-yl-phenyl)-3-(6-chloro-pyridin-3-yl)-urea]	0.0016 µM
N#Cc1cccc(NC(=O)Nc2ccc(C3CNCCO3)cc2C#N)c1 (racemic) [Example 33, (RS)-1-(2-Cyano-4-morpholin-2-yl-phenyl)-3-(3-cyano-phenyl)-urea]	2.08 µM
